pEC50: −log10 of the molar value.
Target: Bruton's tyrosine kinase (Btk) (Homo sapiens, UniProt Q06187)
Assay: target occupancy in Ramos cells, covalent fluorescent probe competition
Assay type: cell-based

Amino acid sequences for entries named in this document (tags omitted). Residues count along the entry.
UniProt Q06187, 2-659: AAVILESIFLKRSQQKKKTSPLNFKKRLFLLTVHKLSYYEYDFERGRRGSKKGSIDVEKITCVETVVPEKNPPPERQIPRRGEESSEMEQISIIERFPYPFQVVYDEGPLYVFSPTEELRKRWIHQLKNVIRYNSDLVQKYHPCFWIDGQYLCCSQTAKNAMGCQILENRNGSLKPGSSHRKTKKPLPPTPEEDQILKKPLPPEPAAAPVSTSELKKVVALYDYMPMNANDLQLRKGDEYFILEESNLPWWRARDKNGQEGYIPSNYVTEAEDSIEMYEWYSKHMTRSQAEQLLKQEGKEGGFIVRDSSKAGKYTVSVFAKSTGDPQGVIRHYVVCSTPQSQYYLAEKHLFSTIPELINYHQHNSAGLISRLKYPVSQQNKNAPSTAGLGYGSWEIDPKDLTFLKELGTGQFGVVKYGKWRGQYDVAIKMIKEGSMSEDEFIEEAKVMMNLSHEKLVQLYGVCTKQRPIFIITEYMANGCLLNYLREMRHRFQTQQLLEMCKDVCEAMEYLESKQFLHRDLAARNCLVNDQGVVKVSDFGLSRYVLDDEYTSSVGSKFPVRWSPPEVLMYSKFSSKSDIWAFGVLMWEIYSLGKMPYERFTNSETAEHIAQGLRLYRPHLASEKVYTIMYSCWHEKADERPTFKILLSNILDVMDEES

Question: C=CC(=O)Nc1cccc(Nc2nc(Nc3ccc(OCCOC)cc3)ncc2F)c1 [CC-292] was tested. Which pEC50 did it give?
Answer: 7.65
